Here are results for 106 compounds from PubChem BioAssay AID1216 (Sanford-Burnham Center for Chemical Genomics, 2008).

Sequences of proteins named here, by UniProt entry; tags and fusion partners are left off.
UniProt P34949, whole entry: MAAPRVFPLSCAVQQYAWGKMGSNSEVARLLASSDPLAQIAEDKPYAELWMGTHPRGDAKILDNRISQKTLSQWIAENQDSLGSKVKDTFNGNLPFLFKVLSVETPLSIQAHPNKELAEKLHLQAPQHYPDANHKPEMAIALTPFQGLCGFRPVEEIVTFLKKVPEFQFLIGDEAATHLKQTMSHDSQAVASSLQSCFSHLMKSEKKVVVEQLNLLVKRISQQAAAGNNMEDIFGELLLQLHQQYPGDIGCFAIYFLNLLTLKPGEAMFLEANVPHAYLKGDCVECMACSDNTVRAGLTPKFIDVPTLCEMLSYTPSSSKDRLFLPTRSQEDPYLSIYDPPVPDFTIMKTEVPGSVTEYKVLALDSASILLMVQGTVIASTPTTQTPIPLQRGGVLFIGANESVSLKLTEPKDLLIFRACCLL

SMILES strings stand for the structures. The entries are a selection whose mix differs from that of the whole data set. Activity calls are given as the source filed them.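 The calls were made as follows: active = activation factor of 2 or more at 20 µM; inactive = the rest.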

The assay deals with Mannose-6-phosphate isomerase (Homo sapiens) (UniProt P34949). Briefly: human PMI activators, high substrate, primary screen, biochemical, fluorescence intensity, near-saturating mannose 6-phosphate (AID 1216). Particulars: coupled PMI enzyme assay, resazurin fluorescence, 20 min, at 20 µM; active compounds read high, 1 = untreated enzyme, 0 = substrate-free blank. The essentials:
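Material: human phosphomannose isomerase with PGI, G6PDH, diaphorase coupling enzymes / Reagent: Man-6-P substrate 1.0 mM / Dosing: single compound dose of 20 µM, 1% DMSO final / Incubation: enzyme reaction with compound 20 min at room temperature / Signal: resorufin fluorescence (Ex 544/Em 590 nm) from resazurin via diaphorase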
(In general: The colour change of resazurin is a common sign of viable cells or microbes.)
As for `CC1CCC(C(C)C)C(OP(=O)(Nc2ccccn2)c2ccccc2)C1` (stereo unspecified), the activation factor result was “inactive”. In the case of `COc1cc(C2NCCC3(OCCO3)C2(C)C)cc(OC)c1OC.O=[N+]([O-])c1cc([N+](=O)[O-])c(O)c([N+](=O)[O-])c1` (stereo unspecified), the activation factor result is “inactive”.

On to `CCCOc1ccc(NP(C)(=O)Oc2ccc(Cl)cc2)cc1` (stereo unspecified), for which the activation factor is inactive: 1. In the case of `CP(=O)(Nc1ccc(SC(F)(F)F)cc1)Oc1ccccc1` (stereo unspecified) it was inactive: 1; in that of `CN1CCCCC1COC(=O)C1(O)c2ccccc2CCc2ccccc21` (stereo unspecified), inactive: 0.8; in that of `COc1ccccc1OP(C)(=O)Nc1c(C)cccc1C` (stereo unspecified), inactive: 1.1.

For the compound `Clc1n[nH]nc1-c1nn[nH][15n]1`, the activation factor entry was “inactive”. Turning to `O=[N+]([O-])c1cc([N+](=O)[O-])c(-n2nnc3ccccc32)c([N+](=O)[O-])c1`, the activation factor was inactive: 1. Under `O=P1(Nc2ccccn2)COc2ccccc2OC1` stands “inactive”; under `CN(C(=O)Cc1ccc(Cl)c(Cl)c1)[C@@H]1CCCC[C@H]1N1CCCC1`, “inactive”. Under `Cc1nc2ccc3ccccc3c2s1.O=[N+]([O-])c1cc([N+](=O)[O-])c(O)c([N+](=O)[O-])c1` stands inactive: 0.8. In the case of `Cc1cc(C)cc(OP(C)(=O)Nc2ccc(C)cc2C)c1` (stereo unspecified), the activation factor is inactive: 1. In the case of `Cc1cccc(OCC(=O)OC2CN3CCC2CC3)c1` (stereo unspecified), the activation factor result is “inactive”. As to `CCOC(=O)c1ccc(NP(C)(=O)Oc2cc(C)cc(C)c2)cc1` (stereo unspecified), the activation factor is inactive: 1. On to `CCOP(=O)(Nc1cccc2ccccc12)OCC`, for which the activation factor entry was “inactive”. Turning to `Cc1cc(C)cc(OP(C)(=O)Nc2ccccn2)c1` (stereo unspecified), the activation factor was inactive: 0.9.

In the case of `CP(=O)(Nc1cccc(Br)c1)Oc1ccccc1` (stereo unspecified), the activation factor is inactive: 0.9. Turning to `Cc1ccc(C)c(NP(C)(=O)Oc2ccccc2)c1` (stereo unspecified), the activation factor was inactive: 1.

`O=P(Nc1nccs1)(Oc1ccccc1)Oc1ccccc1`: the activation factor result was “inactive”.

For `CCOP1(=S)c2c(C)nn(CCC#N)c2N=C(c2ccccc2F)N1C` (stereo unspecified), the activation factor result was “inactive”. As for `CCOP1(=S)c2c(C)nn(CCC#N)c2N=C(c2ccc(F)cc2)N1C` (stereo unspecified), the activation factor result was “inactive”. Under `CC1=NCCc2c1[nH]c1ccccc21.O=[N+]([O-])c1cc([N+](=O)[O-])c(O)c([N+](=O)[O-])c1` stands inactive: 1; under `Cc1cccc(C)c1OP(C)(N)=O` (stereo unspecified), inactive: 1.4; under `CC(C)(C)c1ccc(OP(C)(=O)Nc2ccc(SC(F)(F)F)cc2)cc1` (stereo unspecified), inactive: 0.9. In the case of `O=[N+]([O-])c1ccc2c(c1)C=Nc1ccccc1O2`, the activation factor is inactive: 0.4. On to `Cc1ccc2nc3c(c(C)c2c1)CC(C(Cl)Cl)S3` (stereo unspecified), for which the activation factor entry is “inactive”. In the case of `COc1ccc(OP(C)(=O)Nc2cccc(F)c2)cc1` (stereo unspecified), the activation factor is inactive: 1. On to `COc1ccccc1OP(C)(=O)Nc1cc(Cl)ccc1C` (stereo unspecified), for which the activation factor was inactive: 1.

On to `CCN(CC)C(=S)SC(NC=O)C(Cl)(Cl)Cl` (stereo unspecified), for which the activation factor entry is “inactive”. For `Cc1cc(C)cc(OP(C)(N)=O)c1` (stereo unspecified), the activation factor is inactive: 0.9. As to `CCOC(=O)c1ccc(NP(C)(=O)Oc2ccccc2)cc1` (stereo unspecified), the activation factor is inactive: 0.9. As to `Cc1ccc(NP(C)(=O)Oc2ccccc2)c(C)c1` (stereo unspecified), the activation factor is inactive: 1.1.

Consider `COc1ccccc1OP(C)(=O)Nc1ccc(C)cc1` (stereo unspecified), for which the activation factor is inactive: 0.9.

As to `COc1ccc2nc(NP(=O)(c3ccccc3)c3ccccc3)sc2c1`, the activation factor result is “inactive”. As to `Cc1c2c(nc3ccccc13)SC(C(Cl)Cl)C2` (stereo unspecified), the activation factor entry is “inactive”. Regarding `Cc1cc(=O)[nH]c(N[N+](=O)[O-])n1`, the activation factor entry is “inactive”. In the case of `CCN(CC)CCCOC(=O)C(O)(c1ccccc1)c1ccccc1`, the activation factor was inactive: 1.

As to `COc1ccc(N/C(=N/P(=O)(N2CCOCC2)N2CCOCC2)N2CCOCC2)cc1`, the activation factor entry is “inactive”. For the compound `Cc1cc(C)cc(OP(C)(=O)Nc2ccc(SC(F)(F)F)cc2)c1` (stereo unspecified), the activation factor was inactive: 0.8. As to `CP(=O)(NC(=O)Nc1ccccc1)Oc1ccccc1` (stereo unspecified), the activation factor was inactive: 1. As for `O=C(COc1ccccc1)OC1CN2CCC1CC2` (stereo unspecified), the activation factor result is “inactive”. Under `CP(=O)(Oc1ccccc1)OC(c1ccccc1)C(F)(F)F` (stereo unspecified) stands inactive: 1; under `Cc1cccc(C)c1OP(C)(=O)Nc1ccc(SC(F)(F)F)cc1` (stereo unspecified), inactive: 0.7. As for `CP(=O)(Nc1ccccn1)Oc1ccc(Cl)cc1` (stereo unspecified), the activation factor is inactive: 1. Take `CCOP(C)(=S)SCC(=O)NC(C)C(=O)O` (stereo unspecified): the activation factor is inactive: 0.9.

On to `CCOC(=O)c1ccc(NP(C)(=O)Oc2ccc(OC)cc2)cc1` (stereo unspecified), for which the activation factor is inactive: 1.1.

Consider `COc1ccccc1OP(C)(=O)Nc1ccccc1` (stereo unspecified), for which the activation factor is inactive: 1. Turning to `CP(=O)(Nc1ccccc1Br)Oc1ccccc1` (stereo unspecified), the activation factor is inactive: 1.

As for `CP(=S)(Nn1cnnc1)Oc1ccccc1` (stereo unspecified), the activation factor was inactive: 0.9. As for `CP(=O)(OC12CC3CC(CC(C3)C1)C2)OC12CC3CC(CC(C3)C1)C2`, the activation factor is inactive: 1. With `CCOC(=O)c1ccc(NP(C)(=O)Oc2ccc(Cl)cc2)cc1` (stereo unspecified), the activation factor was inactive: 1. Turning to `CCc1ccc(OP(C)(=O)Nc2cccnc2)cc1` (stereo unspecified), the activation factor is inactive: 1. In the case of `CP(=O)(Oc1ccccc1)N1CCOC1=O` (stereo unspecified) it was inactive: 1; in that of `CC(=O)N1C2C3N(C(C)=O)C1C1N(C(C)=O)C(C(N1C(C)=O)N3C(C)=O)N2C(C)=O`, “inactive”; in that of `COc1ccccc1OP(C)(=O)Nc1c(C)n(C)n(-c2ccccc2)c1=O` (stereo unspecified), inactive: 0.9. For `COc1ccc(OP(C)(=O)Nc2ccc(Br)cc2)cc1` (stereo unspecified), the activation factor is inactive: 0.9. For the compound `CCN(CC)CC(O)COC(=O)C(O)(c1ccccc1)C1CCCCC1` (stereo unspecified), the activation factor result is “inactive”. Turning to `CC1CCN(C(=O)Oc2c(Cl)cc(Cl)c3cccnc23)CC1`, the activation factor entry was “inactive”.

For `CN(C)C(=O)c1c([N+](=O)[O-])cc([N+](=O)[O-])cc1[N+](=O)[O-]`, the activation factor is inactive: 0.5. As to `CP(=O)(Nc1ccc(Cl)cc1)Oc1ccc(F)cc1` (stereo unspecified), the activation factor was inactive: 1. Turning to `CCN(/C(=N/P(=O)(N1CCOCC1)N1CCOCC1)N1CCOCC1)c1ccc(OC)cc1`, the activation factor entry was “inactive”. With `COc1ccccc1OP(C)(=O)Nc1ccccc1Br` (stereo unspecified), the activation factor was inactive: 1.1. `CC(C)(C)c1ccc(OP(C)(=O)O)cc1`: the activation factor was inactive: 1. Under `CN(C)CCOC(=O)C(O)(c1ccccc1)C1CCCC1` (stereo unspecified) stands inactive: 1.1; under `COc1ccccc1OP(=O)(Nc1ccc(C)cn1)Oc1ccccc1OC`, “inactive”. Under `COc1ccc(OP(C)(=O)Nc2ccccn2)cc1` (stereo unspecified) stands inactive: 0.9. In the case of `Cc1ccc(N/C(=N/P(=O)(N2CCOCC2)N2CCOCC2)N2CCOCC2)cc1` it was “inactive”.

For `NC(=O)c1cc([N+](=O)[O-])cc([N+](=O)[O-])c1N`, the activation factor entry was “inactive”. In the case of `CCc1ccc(OP(C)(=O)O)cc1` it was inactive: 1; in that of `COc1ccccc1OP(C)(=O)Nc1ccc(C)cc1C` (stereo unspecified), inactive: 1. For `CP(=O)(Nc1ccccn1)Oc1ccccc1` (stereo unspecified), the activation factor is inactive: 1. As to `Oc1ccccc1CNc1ccccn1`, the activation factor entry was “inactive”. Regarding `Cc1c(NP(C)(=O)Oc2ccc(C(C)C)cc2)c(=O)n(-c2ccccc2)n1C` (stereo unspecified), the activation factor was inactive: 1.2. Turning to `O=[N+]([O-])c1cc([N+](=O)[O-])c(Nc2ccccn2)c([N+](=O)[O-])c1`, the activation factor was inactive: 0.3. Under `CC(C)CC(=O)NC(Sc1ccc(Cl)cc1)C(Cl)(Cl)Cl` (stereo unspecified) stands “inactive”; under `COc1ccc(OP(C)(=O)Nc2ccccc2Br)cc1` (stereo unspecified), inactive: 1.1; under `COc1ccccc1OP(C)(=O)Nc1ccc(C)c(C)c1` (stereo unspecified), inactive: 1. With `CCOP(=O)(Nc1ccccc1)OCC`, the activation factor result is “inactive”. As for `Cc1cc(C)cc(OP(C)(=O)Nc2cccc(C(F)(F)F)c2)c1` (stereo unspecified), the activation factor was inactive: 0.9. For the compound `CP(=O)(Nc1ccc(Cl)cc1Cl)Oc1ccccc1` (stereo unspecified), the activation factor was inactive: 1. `CP(=O)(OCCOc1ccccc1)OCCOc1ccccc1`: the activation factor is inactive: 0.9. As for `Cc1nc2ccc3ccccc3c2o1.O=[N+]([O-])c1cc([N+](=O)[O-])c(O)c([N+](=O)[O-])c1`, the activation factor was inactive: 0.4. Regarding `COc1ccc(OP(C)(=O)Nc2ccc(SC(F)(F)F)cc2)cc1` (stereo unspecified), the activation factor is inactive: 1.1. In the case of `CCOC(=O)c1ccc(NP(C)(=O)Oc2ccc(F)cc2)cc1` (stereo unspecified) it was inactive: 1. In the case of `CCOC(=O)NC(Sc1ccccc1)C(Cl)(Cl)Cl` (stereo unspecified) it was “inactive”; in that of `CP(=O)(Nc1ccccc1)Oc1ccc(F)cc1` (stereo unspecified), inactive: 1.1.

As to `CCC(=O)N1C2C3N(C(=O)CC)C1C1N(C(=O)CC)C(C(N1C(=O)CC)N3C(=O)CC)N2C(=O)CC`, the activation factor result was “inactive”. In the case of `CCN(CC)CCCOC(=O)C(O)(c1ccccc1)C1CCCCC1` (stereo unspecified) it was inactive: 1.2; in that of `COC(=O)c1cc2c(s1)N=C(c1ccccc1)N(C)P2(=O)N1CCOCC1` (stereo unspecified), “inactive”; in that of `CC(C)c1ccc(OP(C)(=O)Nc2ccc(SC(F)(F)F)cc2)cc1` (stereo unspecified), inactive: 0.8. `CC(C)(C)C(=O)NC(Sc1ccccc1)C(Cl)(Cl)Cl` (stereo unspecified): the activation factor result was “inactive”. Under `CP(=O)(Nc1ccccc1F)Oc1ccccc1` (stereo unspecified) stands inactive: 1; under `CCOc1ccc(C2=NCC(CBr)S2)cc1` (stereo unspecified), “inactive”; under `CC(=O)Nc1ccc(Oc2c([N+](=O)[O-])cc([N+](=O)[O-])cc2[N+](=O)[O-])cc1`, “inactive”.

Take `O=C(OCCN1CCN(CCOCc2ccccc2)CC1)C(O)(c1ccccc1)c1ccccc1`: the activation factor is inactive: 1.3.

With `c1nnnn1CCn1cnnn1`, the activation factor result was “inactive”. Consider `CCOP(C)(=S)SCC(=O)NC(C)(CC)C(=O)O` (stereo unspecified), for which the activation factor is inactive: 0.8. Consider `CC(C)C(=O)NC(Sc1ccccc1)C(Cl)(Cl)Cl` (stereo unspecified), for which the activation factor entry was “inactive”. Consider `Cc1ccccc1NP(C)(=O)Nc1ccccc1C`, for which the activation factor is inactive: 1. On to `CP(=O)(Nc1ccc2c(c1)OCCO2)Oc1ccccc1` (stereo unspecified), for which the activation factor is inactive: 1.

As to `COc1ccc(NP(C)(=O)Oc2ccccc2OC)cc1` (stereo unspecified), the activation factor is inactive: 1.1.

Turning to `CN(C)CCOC(=O)C(O)(c1ccccc1)C1CCCCC1` (stereo unspecified), the activation factor result was “inactive”. With `O=P(Nc1ccccn1)(c1ccc(Br)cc1)c1ccc(Br)cc1`, the activation factor result was “inactive”.

Regarding `COc1ccc(OP(C)(=O)Nc2cccc(Br)c2)cc1` (stereo unspecified), the activation factor was inactive: 1.

Consider `O=[N+]([O-])c1cc([N+](=O)[O-])c(NCC2CCS(=O)(=O)C2)c([N+](=O)[O-])c1` (stereo unspecified), for which the activation factor is inactive: 0.6.

Turning to `CC(=O)NC(SC(=S)N(C)C)C(Cl)(Cl)Cl` (stereo unspecified), the activation factor entry is “inactive”.
